## Binding of CDR-mutated scFvs to a peptide of the spike HR2 region

From the AlphaSeq antibody data of Engelhart et al. 2022 (doi:10.1038/s41597-022-01779-4), copy in the FLAb collection.

The target is the same throughout: PDVDLGDISGINAS, from the HR2 region of SARS-CoV-2 spike.

Parent scFv Ab-14: VH joined to VL by a (GGGGS)3 linker. Changes lie in the heavy chain CDRs alone.
VH: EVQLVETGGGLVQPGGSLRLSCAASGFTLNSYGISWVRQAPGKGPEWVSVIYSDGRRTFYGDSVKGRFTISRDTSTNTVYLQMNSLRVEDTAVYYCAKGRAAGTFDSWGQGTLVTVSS
VL: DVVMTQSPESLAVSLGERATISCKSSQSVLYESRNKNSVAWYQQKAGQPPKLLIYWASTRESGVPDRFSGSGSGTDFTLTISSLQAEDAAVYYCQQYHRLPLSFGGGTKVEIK

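The starting antibody came from a phage panning campaign against this peptide. In library AAYL49, one, two or three CDR residues were substituted; doubles and triples were drawn at random. The assay is AlphaSeq: two haploid yeast populations carry antibody and antigen on their surface. Pairs that bind mate more often; barcode pairs of the diploids are counted by sequencing. Each replicate has its own calibration line, from reference interactions of the BCL2 family. Mating was done three times.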

The parent's heavy chain CDRs are GFTLNSYGIS, VIYSDGRRTFYGDSVK, GRAAGTFDS; each variant's own CDRs replace them letter for letter. Scale: log10 of Kd in nM, estimated from mating counts; low values are strong binders. Replicates are averaged; those with no signal do not enter the mean. Where no diploid with the target was found in that replicate, the entry reads "ND": below detection, most likely a poor binder, though not proof of it.

{"CDR-H1": "GFTLNSYGIC", "CDR-H2": "VIYSDGRRTFYGDSVK", "CDR-H3": "DRAAGTFKS", "log10 Kd, replicates": "ND ND ND", "log10 Kd (nM), mean": "ND", "signal with controls": "0/9"}
{"CDR-H1": "GFTSNSYGIS", "CDR-H2": "VIYSDGNRTFYGDSVK", "CDR-H3": "GRAAGTFDQ", "log10 Kd, replicates": "5.82 ND ND", "log10 Kd (nM), mean": "5.82", "signal with controls": "0/9"}
{"CDR-H1": "SFTTNSYGIS", "CDR-H2": "VIDSDGRRTFYGDSVK", "CDR-H3": "GRAAGTFDS", "log10 Kd, replicates": "3.68 ND ND", "log10 Kd (nM), mean": "3.68", "signal with controls": "2/9 (4.19)"}
{"CDR-H1": "GFTLNSYQIS", "CDR-H2": "VIYSDGRRTFYGDSVK", "CDR-H3": "GRAAGTFDM", "log10 Kd, replicates": "ND ND ND", "log10 Kd (nM), mean": "ND", "signal with controls": "2/9 (3.08)"}
{"CDR-H1": "GFTLHSYGIS", "CDR-H2": "VIYSDGRRTFYGDGVK", "CDR-H3": "GRAAGTFDS", "log10 Kd, replicates": "1.88 1.92 1.90", "log10 Kd (nM), mean": "1.90", "signal with controls": "0/9"}
{"CDR-H1": "GFTLNSEGIY", "CDR-H2": "VIYSDGRRTFYGDSVK", "CDR-H3": "GRAAGAFDS", "log10 Kd, replicates": "ND 3.98 5.73", "log10 Kd (nM), mean": "4.85", "signal with controls": "3/9 (4.78)"}
{"CDR-H1": "GFTENSYGIS", "CDR-H2": "VIYSDGRRTFYGDSVK", "CDR-H3": "GRAAGTRRS", "log10 Kd, replicates": "ND 4.17 ND", "log10 Kd (nM), mean": "4.17", "signal with controls": "1/9 (4.00)"}
{"CDR-H1": "GFTLNSYGIS", "CDR-H2": "VIYSDGRRTFYGDSVK", "CDR-H3": "GHAAPTFDK", "log10 Kd, replicates": "0.52 0.78 0.71", "log10 Kd (nM), mean": "0.67", "signal with controls": "1/9 (5.97)"}
{"CDR-H1": "GFTLNSYGIS", "CDR-H2": "VIYSDTRRTFAGDSVK", "CDR-H3": "GRAAGTFDF", "log10 Kd, replicates": "5.15 ND ND", "log10 Kd (nM), mean": "5.15", "signal with controls": "5/9 (4.00)"}
{"CDR-H1": "GYTLNSYGIS", "CDR-H2": "VINSDGRPTFYGDSVK", "CDR-H3": "GRAAGTFDS", "log10 Kd, replicates": "ND 3.67 3.79", "log10 Kd (nM), mean": "3.73", "signal with controls": "1/9 (3.76)"}
{"CDR-H1": "GYCLNSYGIS", "CDR-H2": "VIYSDGRRTFYGDSVK", "CDR-H3": "GRVAGTFDS", "log10 Kd, replicates": "2.17 2.67 2.47", "log10 Kd (nM), mean": "2.44", "signal with controls": "1/9 (4.92)"}
{"CDR-H1": "GFTLNSYGIS", "CDR-H2": "VIYSDGRRTFYGDSNI", "CDR-H3": "GRAAGTFDS", "log10 Kd, replicates": "ND ND ND", "log10 Kd (nM), mean": "ND", "signal with controls": "0/9"}
{"CDR-H1": "GFTLNSFGIS", "CDR-H2": "VIYSDGRRTFYGDSVH", "CDR-H3": "GRAAGTRDS", "log10 Kd, replicates": "ND ND ND", "log10 Kd (nM), mean": "ND", "signal with controls": "0/9"}
{"CDR-H1": "GFTLNSEGIS", "CDR-H2": "VIYSDGRRTFYGDSKK", "CDR-H3": "GRAAGTFDS", "log10 Kd, replicates": "ND ND ND", "log10 Kd (nM), mean": "ND", "signal with controls": "0/9"}
{"CDR-H1": "GFTLNSYGIS", "CDR-H2": "VIYSDGRRTFYGDSVK", "CDR-H3": "TCASGTFDS", "log10 Kd, replicates": "5.89 3.20 ND", "log10 Kd (nM), mean": "4.54", "signal with controls": "4/9 (3.90)"}
{"CDR-H1": "GFTLNSYGSS", "CDR-H2": "KIYSDGRMTFYGDSVK", "CDR-H3": "GRAAGTFDS", "log10 Kd, replicates": "ND ND ND", "log10 Kd (nM), mean": "ND", "signal with controls": "1/9 (2.74)"}
{"CDR-H1": "GFTLNSAGIS", "CDR-H2": "VIYSDGRRTFYGISVK", "CDR-H3": "GRAACTFDS", "log10 Kd, replicates": "ND ND 3.58", "log10 Kd (nM), mean": "3.58", "signal with controls": "0/9"}
{"CDR-H1": "GFTLNSYGIS", "CDR-H2": "VIYSDGRRYFYGDSHK", "CDR-H3": "GRQAGTFDS", "log10 Kd, replicates": "ND ND 5.56", "log10 Kd (nM), mean": "5.56", "signal with controls": "1/9 (4.45)"}

The 2 strongest on average among those seen in every replicate, once more:

{"CDR-H1": "GFTLNSYGIS", "CDR-H2": "VIYSDGRRTFYGDSVK", "CDR-H3": "GHAAPTFDK", "log10 Kd, replicates": "0.52 0.78 0.71", "log10 Kd (nM), mean": "0.67", "signal with controls": "1/9 (5.97)"}
{"CDR-H1": "GFTLHSYGIS", "CDR-H2": "VIYSDGRRTFYGDGVK", "CDR-H3": "GRAAGTFDS", "log10 Kd, replicates": "1.88 1.92 1.90", "log10 Kd (nM), mean": "1.90", "signal with controls": "0/9"}

Three control strains display no target. For library AAYL49, 15% of the pairings with them gave a signal, with a median of 4.06 and one signal in twenty below 2.83, so weak values seen in few replicates may be background. The control count says in how many pairings with the empty strains this scFv gave a signal, with their mean in brackets. Parent in this assay: reference entry 0.65, copy in this library 4.11 (one replicate of three).